Test results published in patent publication US9387198B1, “Inhibitors of advanced glycation end-products (ages)formation” (priority 2015, dated 2016).

Experiments:
[1] = test system: rat hepatocytes (CC1-Cell line); experiment: Fructose-derived AGE-induced intracellular ROS production (DCFH-DA technique); type: cell-based; conditions: 200 μg/mL, 24 hours, ex 490/em 520 nm
Method: Procedure of the Assay: Briefly, 6×10^4 cells/mL cells (normal rat hepatocytes: CC1-Cell line) were seeded on a 96-well plate and kept for 24 hours in an incubator, containing 5% CO2 at 37° C. Before treating with fructose-derived AGEs, the cells were exposed to serum free MEM (minimum essential medium) for next 24 hours. Initially the cells were incubated with 10 μM DCFH-DA non fluorescent probe, for 45 mins in the dark environment. At the end of the incubation, the cells were washed with 1×PBS twice and were incubated with varying concentrations of the fructose-derived AGE, such as 0, 50, 100, and 200 μg/mL, to investigate the AGEs effect on the production of intracellular ROS in a dose dependent manner. […]
Detection of Fluorescence Intensity: The intensity of fluorescence was measured at an excitation 490 nm and an emission 520 nm, using Spectra Max Spectrophotometer (Applied Biosystems, CA, USA).
Estimation of Percentage Inhibition: The inhibition of AGEs-induced intracellular production of ROS in rat hepatocytes incubated with novel anti-glycation agents, 6-nitrobenzimidazole derivatives, was measured by the following formula: Percentage Inhibition=100−[(Fluorescence of test compound−Fluorescence of blank)/(Fluorescence of control−Fluorescence of blank)×100] […]

[2] = test system: rat hepatocytes (CC1-Cell line); experiment: Fructose-derived AGE-mediated diminished growth of hepatocytes (MTT assay); conditions: 200 μg/mL, 24 hours

**Q.** With “HSA: human serum albumin, non-glycated protein control at 200 μg/mL” as the substance, how does the “Fluorescence (Average), intracellular ROS production” value [1] read?
**A.** 92.3

**Q.** What about the “Absorbance (Average), proliferation of rat hepatocytes” value ([2]; MTT, 540 nm) of the same substance?
**A.** 1.11

**Q.** What about the “Percentage Inhibition of proliferation of rat hepatocytes” value ([2]; versus normal untreated cells) of the same substance?
**A.** 15.6%
